Results taken from ChEMBL document CHEMBL1124886, “Electrophilic alpha-methylene-gamma-lactone and isothiocyanate opioid ligands related to etorphine” (1990).

The chains behind the UniProt entries cited, without tags or fusion partners.
UniProt P79350, whole entry: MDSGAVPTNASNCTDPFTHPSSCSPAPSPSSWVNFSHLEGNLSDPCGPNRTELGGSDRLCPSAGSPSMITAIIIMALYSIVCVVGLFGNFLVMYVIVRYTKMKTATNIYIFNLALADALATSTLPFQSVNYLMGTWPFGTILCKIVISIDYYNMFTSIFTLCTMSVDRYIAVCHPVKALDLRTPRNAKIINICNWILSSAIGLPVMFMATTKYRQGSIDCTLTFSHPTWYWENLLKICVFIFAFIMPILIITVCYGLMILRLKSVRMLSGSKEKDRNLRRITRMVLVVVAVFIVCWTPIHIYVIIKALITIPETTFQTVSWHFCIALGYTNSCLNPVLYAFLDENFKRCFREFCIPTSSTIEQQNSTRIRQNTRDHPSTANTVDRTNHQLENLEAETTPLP

How the values were obtained:
[1] = target: Mu-type opioid receptor (Bos taurus) (UniProt P79350); test: % Recovery of 0.5 nM [3H]- bremazocine binding to Opioid receptor mu 1(protected)at a concentration of 6 nM
[2] = target: Mu-type opioid receptor (Bos taurus) (UniProt P79350); test: % Recovery of 0.5 nM [3H]- bremazocine binding to Opioid receptor mu 1(washed)at a concentration of 6 nM
[3] = target: Mu-type opioid receptor (Bos taurus) (UniProt P79350); test: % Recovery of 0.5 nM [3H]- bremazocine binding to Opioid receptor mu 1(unwashed)at a concentration of 6 nM
[4] = target: Mu-type opioid receptor (Bos taurus) (UniProt P79350); test: % Recovery of 0.5 nM [3H]- bremazocine binding to Opioid receptor mu 1(unwashed)at a concentration of 5 nM
[5] = target: Mu-type opioid receptor (Bos taurus) (UniProt P79350); test: % Recovery of 0.5 nM [3H]- bremazocine binding to Opioid receptor mu 1(protected)at a concentration of 5 nM
[6] = target: Mu-type opioid receptor (Bos taurus) (UniProt P79350); test: % Recovery of 0.5 nM [3H]- bremazocine binding to Opioid receptor mu 1(washed)at a concentration of 4.4 nM
[7] = target: Mu-type opioid receptor (Bos taurus) (UniProt P79350); test: % Recovery of 0.5 nM [3H]- bremazocine binding to Opioid receptor mu 1(unwashed)at a concentration of 4.4 nM
[8] = target: Mu-type opioid receptor (Bos taurus) (UniProt P79350); test: % Recovery of 0.5 nM [3H]- bremazocine binding to Opioid receptor mu 1(protected)at a concentration of 4.4 nM

## CO[C@]12C=C[C@@]3(CC1[C@@H](C)N=C=S)C1Cc4ccc(O)c5c4C3(CCN1CC1CC1)[C@H]2O5 (stereo partly drawn)
[1]
  Recovery: 28%
[2]
  Recovery: 44%
[3]
  Recovery: 16%

## C=C1C[C@H]([C@H]2C[C@@]34C=C[C@]2(OC)[C@@H]2Oc5c(O)ccc6c5[C@@]23CCN(CC2CC2)[C@@H]4C6)OC1=O
[4]
  Recovery: 13%
[5]
  Recovery: 47%

## CO[C@]12C=C[C@@]3(CC1[C@H](C)N=C=S)[C@H]1Cc4ccc(O)c5c4[C@@]3(CCN1CC1CC1)[C@H]2O5 (stereo partly drawn)
[6]
  Recovery: 52%
[7]
  Recovery: 23%
[8]
  Recovery: 51%
